The entries are a selection whose mix differs from that of the whole data set. Records with an inconclusive call do not appear. Where a call stands in place of a potency, no number is given. The source made the active and inactive calls. Calls follow the shape of the dose curve; as a rule, active = well fitted activation curve with a large enough effect; inconclusive = small, poorly fitted or top-dose-only effect; inactive = no such curve, though single readings can be large or run the other way.
Potency is read from the fitted curve at half-maximal effect.

The nature of this assay: A quantitative high throughput screen for small molecules that induce DNA re-replication in SW480 colon adenocarcinoma cells. Also: nearly all actives have a fitted effect of over 55% in size. Conditions: Hoechst DNA content imaging, 48 h; series mostly up to 46.1 µM.
Turning to `CC1CCNP(=O)(N(CCCl)CCCl)O1` (configuration not stated), the Potency result was “inactive”.
The entry for `CCOC(=O)Nc1ccc([As](=O)(O)O)c(O)c1` is “inactive”; for `Cc1cc(SC(NC(=O)c2ccccc2)C(Cl)(Cl)Cl)nc(C(C)C)n1` (configuration not stated) it is “inactive”; for `CCCCOc1ccc(C(=O)NCC2(N3CCCCC3)CCCCC2)cc1OC` it is “inactive”.
Turning to `CCOC(=O)Nc1cccc([As](=O)(O)O)c1`, the Potency entry is “inactive”.
In the case of `O=[N+]([O-])c1ccc(Nc2ccc(Oc3ccc([N+](=O)[O-])cc3[N+](=O)[O-])cc2)c([N+](=O)[O-])c1` it was “inactive”; in that of `Cc1cc(SC(NC=O)C(Cl)(Cl)Cl)ncn1` (configuration not stated), “inactive”; in that of `O=P(Nc1ccccn1)(c1cccc2ccccc12)c1cccc2ccccc12`, “inactive”.
In the case of `COc1cc(C(=O)NCC2(N3CCOCC3)CCCCC2)ccc1OCC(C)C` it was “inactive”; in that of `O=[N+]([O-])c1ccc(-c2cc([N+](=O)[O-])c(O)c([N+](=O)[O-])c2)cc1`, “inactive”.
For the compound `O=[As](O)(c1ccc(O)cc1)c1ccccc1O`, the Potency result was “inactive”.
In the case of `C[As](=O)(O)c1cccc(C(=O)O)c1` it was “inactive”; in that of `Cc1ccc(OP(=O)(Nc2ccc([N+](=O)[O-])cn2)Oc2ccc(C)cc2)cc1`, “inactive”; in that of `CC(C)c1ccc(OP(=O)(Nc2ccccn2)Oc2ccccc2F)cc1` (configuration not stated), “inactive”.
The entry for `COC(=O)C1(C)COP(=O)(N2CCCCCC2)OC1` (configuration not stated) is “inactive”.
For `ClCCSc1nnc(-c2cccnc2)o1`, the Potency result is “inactive”.
In the case of `O=C(OC1CN2CCC1CC2)c1cccc2[nH]cnc12` (configuration not stated) it was “inactive”; in that of `CCN(CC)C(=S)SC(NC=O)C(Cl)(Cl)Cl` (configuration not stated), active: 10.3 µM; in that of `CC(C)NC(=O)NP(=O)(Oc1ccccc1)Oc1ccccc1`, “inactive”.
The entry for `Cc1cc(=O)[nH]c(N[N+](=O)[O-])n1` is “inactive”; for `O=C(OC1CN2CCC1CC2)C12CC3CC(CC(C3)C1)C2` (configuration not stated) it is “inactive”; for `COc1cc(I)ccc1[As](=O)(O)O` it is “inactive”.
In the case of `COc1ccc2nc(NP(=O)(c3ccccc3)c3ccccc3)sc2c1` it was “inactive”; in that of `O=P1(N(CCCl)CCCl)OCCCN1CCCl` (configuration not stated), “inactive”.
On to `O=P1(N(CCCl)CCCl)Nc2ccccc2N1`, for which the Potency entry is “inactive”.
In the case of `COc1ccc(N/C(=N/P(=O)(N2CCOCC2)N2CCOCC2)N2CCOCC2)cc1` it was “inactive”; in that of `O=[N+]([O-])c1cc(Oc2ccc([N+](=O)[O-])cc2C(F)(F)F)cc([N+](=O)[O-])c1`, “inactive”.
